Measurements as given in PubChem BioAssay AID828 (The Scripps Research Institute Molecular Screening Center, 2007).
This is a selection; strong and weak results do not stand in their true shares. Calls of active or inactive are those of the source. Cut-off read from the data, not from the text of the source: active = inhibition above about 27%; inactive = the rest.

Amino acid sequences for entries named in this document (tags omitted).
UniProt O43603, whole entry: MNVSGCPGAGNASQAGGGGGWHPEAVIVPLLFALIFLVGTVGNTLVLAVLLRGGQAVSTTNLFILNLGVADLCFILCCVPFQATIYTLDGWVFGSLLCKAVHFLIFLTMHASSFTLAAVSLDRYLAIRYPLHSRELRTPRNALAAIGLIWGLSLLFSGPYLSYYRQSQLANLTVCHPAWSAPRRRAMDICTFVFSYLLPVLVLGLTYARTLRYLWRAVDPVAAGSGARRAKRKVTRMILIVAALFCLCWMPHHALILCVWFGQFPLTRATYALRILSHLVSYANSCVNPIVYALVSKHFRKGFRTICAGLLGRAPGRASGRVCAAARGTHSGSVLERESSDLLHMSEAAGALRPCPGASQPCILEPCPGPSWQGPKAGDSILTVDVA

Target: Galanin receptor type 2 (Homo sapiens) (UniProt O43603)
Assay: blockers of human galanin receptor 2 – cell-based, primary screen (AID 828);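 note: cells stimulated with galanin 1-16 at roughly its EC80; 0% = agonist challenge control and 100% = basal control without agonist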
Conditions: GALR2-expressing cells, antagonist mode; at 4 µM; active compounds read high

Structure (SMILES) | inhibition
CCN(N=Nc1nonc1N)c1nonc1N | inactive: 1.74%
